This is an account of results in patent publication US20110053873A1 (published 2011).

The target of this assay is HSP90α (Homo sapiens, UniProt P07900, I104V). The assay is described as follows: Enzyme binding (competition fluorescence polarization) assay with TSD-FP probe.

In turn, `COc1cccc(-c2cc(F)ccc2[C@H]2Cc3nc(N)nc(C)c3C(NOCCC[C@H](O)CO)=N2)n1` [Compound 75, (R,Z)-2-amino-7-(4-fluoro-2-(6-methoxypyridin-2-yl)phenyl)-4-methyl-7,8-dihydropyrido[4,3-d]pyrimidin-5(6H)-one O—(S)-4,5-dihydroxypentyl oxime] displayed an IC50 of 10 nM.
As for `COc1cccc(-c2cc(F)ccc2[C@H]2Cc3nc(N)nc(C)c3/C(=N/OC[C@H]3COCCO3)N2)n1` [Compound 40, (R,Z)-2-Amino-7-(4-fluoro-2-(6-methoxypyridin-2-yl)phenyl)-4-methyl-7,8-dihydropyrido[4,3-d]pyrimidin-5(6H)-one O—((R)-1,4-dioxan-2-yl)methyl oxime], the IC50 amounted to 10 nM.
